Results published in ChEMBL document CHEMBL1136085, “Structure-activity study of novel tricyclic benzazepine arginine vasopressin antagonists” (Bioorg Med Chem Lett, 2003).

The chains behind the UniProt entries cited, without tags or fusion partners.
UniProt P30560, whole entry: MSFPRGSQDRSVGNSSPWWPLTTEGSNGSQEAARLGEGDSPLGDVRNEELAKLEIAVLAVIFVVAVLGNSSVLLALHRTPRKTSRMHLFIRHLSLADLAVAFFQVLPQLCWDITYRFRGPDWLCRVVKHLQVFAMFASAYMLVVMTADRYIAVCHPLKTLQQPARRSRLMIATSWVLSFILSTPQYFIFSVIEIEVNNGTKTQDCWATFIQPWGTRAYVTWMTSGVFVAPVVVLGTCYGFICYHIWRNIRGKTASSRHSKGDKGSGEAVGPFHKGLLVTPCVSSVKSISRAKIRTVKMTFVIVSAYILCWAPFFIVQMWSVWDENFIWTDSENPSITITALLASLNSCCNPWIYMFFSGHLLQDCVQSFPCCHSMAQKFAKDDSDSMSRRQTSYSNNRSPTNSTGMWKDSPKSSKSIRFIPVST

Target: Vasopressin V1a receptor (Rattus norvegicus, UniProt P30560)
Assay: Inhibition of [3H]AVP binding to Dawley rat hepatic vasopressin V1a receptor.

Row | IC50 | Structure (SMILES)
1 | 20 nM | Cc1ccc(F)cc1C(=O)Nc1ccc(C(=O)N2Cc3cccn3Cc3ccccc32)cc1
2 | 85 nM | O=C(Nc1ccc(C(=O)N2Cc3cccn3Cc3ccccc32)cc1)c1ccccc1O
